Results from ChEMBL document CHEMBL1126621 (J Med Chem, 1993).

Assay: Relative affinity for delta and kappa opioid receptors of guinea pig brain homogenate
Conditions: Cavia porcellus

CC[C@H](C)[C@H]1NC(=O)[C@H](CCCN=C(N)N)NC(=O)[C@@H](CCCN=C(N)N)NC(=O)[C@H](NC(=O)[C@@H]2Cc3ccccc3CN2C(=O)CNC(=O)CNC(=O)[C@@H](N)Cc2ccc(O)cc2)CSSC[C@H](C(=O)O)NC(=O)[C@H]2CCCN2C(=O)[C@H](CCCN=C(N)N)NC1=O
Selectivity: 3.5
